Drawing on ChEMBL document CHEMBL1132626 (J Med Chem, 1999), this text covers IC50 for one compound.

Sequences of proteins named here, by UniProt entry; tags and fusion partners are left off.
UniProt P23219, whole entry: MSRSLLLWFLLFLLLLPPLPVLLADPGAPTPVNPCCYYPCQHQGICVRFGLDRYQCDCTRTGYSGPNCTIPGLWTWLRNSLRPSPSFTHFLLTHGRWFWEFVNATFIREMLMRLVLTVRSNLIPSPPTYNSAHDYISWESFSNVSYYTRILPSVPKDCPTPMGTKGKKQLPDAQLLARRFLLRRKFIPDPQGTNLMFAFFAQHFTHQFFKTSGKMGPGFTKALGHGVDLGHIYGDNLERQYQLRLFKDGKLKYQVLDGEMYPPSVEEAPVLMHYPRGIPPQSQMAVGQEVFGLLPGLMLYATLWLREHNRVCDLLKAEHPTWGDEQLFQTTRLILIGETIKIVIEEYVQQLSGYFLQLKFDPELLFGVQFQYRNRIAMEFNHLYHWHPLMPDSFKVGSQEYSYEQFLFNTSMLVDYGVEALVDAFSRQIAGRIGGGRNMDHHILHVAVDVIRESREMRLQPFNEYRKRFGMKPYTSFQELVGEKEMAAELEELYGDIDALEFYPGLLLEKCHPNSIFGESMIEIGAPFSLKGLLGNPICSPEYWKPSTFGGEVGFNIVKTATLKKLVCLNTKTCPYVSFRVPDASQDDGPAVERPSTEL

In this assay the target is Prostaglandin G/H synthase 1 (Homo sapiens, UniProt P23219).

The structures appear in SMILES notation.

As a reminder, the IC50 is the concentration at which inhibition is half-maximal. Low values mean greater potency, high ones weaker potency. Regarding `CS(=O)(=O)c1ccc(C2=C(Oc3ccccc3)C(=O)CC2)cc1`, the IC50 was determined as 11 µM.
